Assay results taken from PubChem BioAssay (NCI).
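Compound exposure: 48 hours, 5 concentrations, 96-well plates. TGI denotes the concentration required for complete inhibition of growth.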

Experiments:
Assay in all cases: growth of human tumour cells (NCI), 48 h
RPMI-8226 leukemia = tested on: RPMI-8226 leukemia
HOP-92 NSCLC = tested on: HOP-92 NSCLC
RXF 393 renal = tested on: RXF 393 renal
MDA-MB-231 breast = tested on: MDA-MB-231 breast
CCRF-CEM leukemia = tested on: CCRF-CEM leukemia
HCT-15 colon = tested on: HCT-15 colon
UACC-62 melanoma = tested on: UACC-62 melanoma
MDA-MB-435 = tested on: MDA-MB-435
SF-295 CNS = tested on: SF-295 CNS
SNB-19 CNS = tested on: SNB-19 CNS
HCC-2998 colon = tested on: HCC-2998 colon
U251 CNS = tested on: U251 CNS
SK-MEL-5 melanoma = tested on: SK-MEL-5 melanoma
K-562 leukemia = tested on: K-562 leukemia
LOX IMVI melanoma = tested on: LOX IMVI melanoma
KM12 colon = tested on: KM12 colon
CAKI-1 renal = tested on: CAKI-1 renal
MCF7 breast = tested on: MCF7 breast
NCI/ADR-RES ovarian = tested on: NCI/ADR-RES ovarian
OVCAR-3 ovarian = tested on: OVCAR-3 ovarian
DU-145 prostate = tested on: DU-145 prostate
SNB-75 CNS = tested on: SNB-75 CNS
HT29 colon = tested on: HT29 colon
T-47D breast = tested on: T-47D breast
HCT-116 colon = tested on: HCT-116 colon
SK-MEL-2 melanoma = tested on: SK-MEL-2 melanoma
UACC-257 melanoma = tested on: UACC-257 melanoma
MALME-3M melanoma = tested on: MALME-3M melanoma
OVCAR-8 ovarian = tested on: OVCAR-8 ovarian
OVCAR-5 ovarian = tested on: OVCAR-5 ovarian
EKVX NSCLC = tested on: EKVX NSCLC
M14 melanoma = tested on: M14 melanoma
SF-539 CNS = tested on: SF-539 CNS
NCI-H460 lung = tested on: NCI-H460 lung
MDA-N = tested on: MDA-N
SK-OV-3 ovarian = tested on: SK-OV-3 ovarian
HS 578T breast = tested on: HS 578T breast
TK-10 renal = tested on: TK-10 renal
SN12C renal = tested on: SN12C renal
COLO 205 colon = tested on: COLO 205 colon
SK-MEL-28 melanoma = tested on: SK-MEL-28 melanoma
NCI-H522 lung = tested on: NCI-H522 lung
SF-268 CNS = tested on: SF-268 CNS
A498 renal = tested on: A498 renal
A549 NSCLC = tested on: A549 NSCLC
OVCAR-4 ovarian = tested on: OVCAR-4 ovarian
IGROV1 ovarian = tested on: IGROV1 ovarian
SW-620 colon = tested on: SW-620 colon
PC-3 prostate = tested on: PC-3 prostate
ACHN renal = tested on: ACHN renal
HOP-62 NSCLC = tested on: HOP-62 NSCLC
NCI-H23 lung = tested on: NCI-H23 lung
NCI-H226 lung = tested on: NCI-H226 lung
UO-31 renal = tested on: UO-31 renal
786-0 renal = tested on: 786-0 renal
MOLT-4 leukemia = tested on: MOLT-4 leukemia
HL-60(TB) leukemia = tested on: HL-60(TB) leukemia
SR leukemia = tested on: SR leukemia

Measured: TGI

COc1ccc2c3c1O[C@H]1C4(OC)CCC5(CC4C(C)(C)O)[C@@H](C2)N(C)CC[C@]315 (stereo partly drawn)
> 100 µM: all assays above
